{
  "source": "patent US20240316019A1",
  "about": "(Bayer Aktiengesellschaft, priority 2023, published 2024)",
  "tested_on": "patients with acute non-cardioembolic ischemic stroke",
  "settings": "for Primary safety composite: ISTH major and clinically relevant non-major bleeding, % participants / Primary safety composite: ISTH major and clinically relevant non-major bleeding, n participants: while on treatment",
  "note": "Like-named read-outs stand apart in the source and are kept apart here.",
  "data": [
    {"smiles": "CC[C@@H](C(=O)Nc1ccc(C(N)=O)c(F)c1)n1cc(OC)c(-c2cc(Cl)ccc2-n2cc(C(F)(F)F)nn2)cc1=O", "note": "[Compound A, (4S)-2^4-chloro-4-ethyl-7^3-fluoro-3^5-methoxy-3^2,5-dioxo-14-(trifluoromethyl)-3^2H-6-aza-3(4,1)-pyridina-1(1)-[1,2,3]triazola-2(1,2),7(1)-dibenzenaheptaphane-7^4-carboxamide]", "values": [
      {"measurement": "Primary safety composite: ISTH major and clinically relevant non-major bleeding, % participants", "setting": "10 mg, of 445", "result": 4, "unit": "%"},
      {"measurement": "Primary safety composite: ISTH major and clinically relevant non-major bleeding, n participants", "setting": "10 mg, of 445", "result": 19},
      {"measurement": "Primary safety composite: ISTH major and clinically relevant non-major bleeding, % participants", "setting": "20 mg, of 446", "result": 3, "unit": "%"},
      {"measurement": "Primary safety composite: ISTH major and clinically relevant non-major bleeding, n participants", "setting": "20 mg, of 446", "result": 14},
      {"measurement": "Primary safety composite: ISTH major and clinically relevant non-major bleeding, % participants", "setting": "50 mg, of 443", "result": 4, "unit": "%"},
      {"measurement": "Primary safety composite: ISTH major and clinically relevant non-major bleeding, n participants", "setting": "50 mg, of 443", "result": 19},
      {"measurement": "New safety signals when added to antiplatelet therapy", "setting": "patients with acute non-cardioembolic ischemic stroke associated with atherosclerosis", "result": "without causing new safety signals"},
      {"measurement": "Primary safety outcome events, dose-response association and increase vs placebo", "setting": "pooled Compound A groups vs placebo", "result": "No dose-response association and no significant increase"}
    ]}
  ]
}
